The chains behind the UniProt entries cited, without tags or fusion partners. Residues count along the entry.
UniProt Q9NZQ7, 19-238 limits assumed: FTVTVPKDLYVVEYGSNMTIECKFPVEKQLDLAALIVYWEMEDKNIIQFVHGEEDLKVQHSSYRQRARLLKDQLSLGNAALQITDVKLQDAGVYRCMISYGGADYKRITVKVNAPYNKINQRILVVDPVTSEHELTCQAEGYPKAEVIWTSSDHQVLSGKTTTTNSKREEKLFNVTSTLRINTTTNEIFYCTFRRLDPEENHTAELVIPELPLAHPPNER

According to patent US20210386721A1, “SUBSTITUTED PHENYLPROPENYL PYRIDINE DERIVATIVES, THEIR PREPARATION AND PHARMACEUTICAL APPLICATIONS” (SHANGHAI HAIYAN PHARMACEUTICAL TECHNOLOGY CO., LTD., priority 2019, published 2021):

What was measured:
PD-1/PD-L1 = PD-1/PD-L1 (Homo sapiens, UniProt Q9NZQ7); experiment: PD-1/PD-L1 binding assay (HTRF, PPI-HTRF); conditions: read-out: PPI-HTRF (IC50/nM); HTRF PD1/PD-L1 binding assay kit; 10 nM Tag1-PD-L1; 25° C.
Procedure: Assay 1 PD-1/PD-L1 Binding Assay
DMSO is from Sigma, Cat No: D5879; 384-well small volume plate (white) is from Greiner, Cat No: 784075; Anti-PD1 blocking antibody (IC50: 10 nM) is from Cisbio, Cat No: 64CUS000C-1a; Anti-PDL1 blocking antibody (IC50: 0.3 nM) is from Cisbio, Cat No: 64CUS000C-1b; HTRF PD1/PD-L1 binding assay kit is from Cisbio, Cat No: 63ADK000CPDPEB.
1. Prepare the compound to be tested at 2x concentration into 1× reaction buffer containing 4% DMSO;
2. Tag1-PD-L1 protein and Tag2-PD1 protein were prepared in 1× reaction buffer at concentrations of […] and 10 nM, respectively. The final reaction concentration of the experiment was 10 nM Tag1-PD-L1 and 2 nM […];
3. anti-Tag1-Eu3+ antibody is prepared in 1x concentration detection buffer at a ratio of 1:100;
4. anti-Tag2-XL665 antibody is prepared in 1x concentration detection buffer at a ratio of 1:25; Experimental steps
1. 5 μL of compounds to be tested (2×) was added;
2. 2.5 ul Tag1-PD-L1 protein and 2.5 ul Tag2-PD1 protein were added respectively, and the total reaction system is 10 ul, and reacted at 25° C. for 15 minutes;
3. 5 ul anti-Tag1-Eu3+ antibody and 5 ul anti-Tag2-XL665 antibody were added respectively, and reacted at 25° C. for 16 hours;
4. The fluorescence microplate reader HTRF reading program was used to read two readings at 665 nm and 620 nm, the ratio of the two wavelengths was used to judge the activity of the compound, and the IC50 of the compound to be tested is calculated by XLFIT5.0 (IDBS).

[1] = tested on: Jurkat T(PD1 Luc-)/CHOK1(PDL-1); experiment: Jurkat T(PD1 Luc-)/CHOK1(PDL-1) cell experiment (luciferase reporter); conditions: read-out: Jurkat T (PD1 Luc-/ CHOK1(PDL-1) (EC50/nM)); CHO/PD-L1-OKT3 cells co-cultured with Jurkat/PD1-NFAT-Luc cells for 6 hours; Bio-Glo luciferase signal
Procedure: Assay 2 Jurkat T(PD1 Luc-)/CHOK1(PDL-1) Cell Experiment
G418, Sangon Biotech #A100859-0001, Cat Number G108BA0003, 5 ml of deionized water being added into each bottle, store at 4° C.
CHO/PD-L1-OKT3 cells (constructed by referring to Promega's PD-1/PD-L1 Blockade Bioassays system) cultured in F-12K medium (containing 10% FBS, 800 ug/ml G418, 400 ug/ml D Hygromycin B) were planted into a 96-well plate at 2×10^4 per well, and incubated for 24 hours at 37° C. and 5% CO2. part of the medium was removed, and the test compound dissolved in DMSO with a final concentration of 1 uM was added, and DMSO at the same concentration was added into the control cells. Jurkat/PD1-NFAT-Luc cells (constructed by referring to Promega's PD-1/PD-L1 Blockade Bioassays system) were added at 5×10^5 per well at the same time, and cultured for 6 hours. The corresponding luciferase signal was detected by Bio-Glo™ (Promega, G7940) reagent. The EC50 of each compound to be tested was calculated through the non-linear regression of XLfit software.

| IC50 (PD-1/PD-L1) | SMILES | EC50 [1] |
| --- | --- | --- |
| 1 nM | COc1cc(/C=C/c2cccc(-c3cccc(-c4nc5cc(CN6CC[C@@H](O)C6)cc(C#N)c5o4)c3C)c2C)c(C(F)(F)F)cc1CN1CC[C@@H](C(=O)O)C1 | 41 nM |
| < 1 nM | COc1cc(C(=O)Nc2cccc(-c3cccc(/C=C/c4cc(OC)c(CN5CC[C@@H](C(=O)O)C5)cc4C(F)(F)F)c3C#N)c2C)ncc1CN1CC[C@@H](O)C1 | 24 nM |

| SMILES | IC50 (PD-1/PD-L1) | EC50 [1] |
| --- | --- | --- |
| COc1cc(/C=C/c2cccc(-c3cccc(-c4nc5cc(CN6CC[C@@H](O)C6)cc(C(F)(F)F)c5o4)c3C)c2C)c(C(F)(F)F)cc1CN1CC[C@@H](C(=O)O)C1 | 2 nM |  |
